Results on one compound are retold here after PubChem BioAssay AID1199 (EPA DSSTox, 2008).

Structures are written as SMILES. Calls of active or inactive are those of the source.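 How the source made its calls: active means a tumour-causing dose and a tumour site recorded for mice in at least one sex group; inconclusive means only government mouse studies exist and were judged inadequate; inactive means mouse studies exist but none gave tumours.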

The subject of this data set is mouse carcinogenicity bioassay, TD50 from CPDB. The data set is described as follows: DSSTox (CPDBAS) Carcinogenic Potency Database Summary Mouse Bioassay Results. The settings on record: TD50_Mouse_Note: no positive results; TargetSites_Mouse_Female: no positive results. The source says: The Carcinogenic Potency Database (CPDB) is a unique and widely used international resource of the results of over 6500 chronic, long-term animal cancer tests on over 1500 chemical substances. The CPDB provides easy access to the bioassay literature, with qualitative and quantitative analyses of both positive and negative experiments that have been published over the past 50 years in the general literature and by the National Cancer Institute/National Toxicology Program. The CPDB standardizes the diverse literature of cancer bioassays that vary widely in protocol, histopathological examination and nomenclature, and in the published author's choices of what information to provide in their papers. Results are reported in the CPDB for tests in rats, mice, hamsters, dogs, and nonhuman primates, and are based on the most positive result among all experiments for each sex-species. The DSSTox CPDBAS (all species) file incorporates data from the CPDB Summary Tables for the full list of over 1500 chemical substances tested in at least one species. Summary bioassay results for Mouse (TD50, tumor sites, male, female, both sexes) are provided in the CPDB Summary Tables and the DSSTox CPDBAS file for over 1000 chemical substances.
TD50 is a standardized quantitative measure of carcinogenic potency (analogous to an LD50) and is reported in the CPDB Summary Table for each species. […]

For `O=[N+]([O-])C(Cl)(Cl)Cl`, the outcome is “inactive; no positive results”.
